Assay results reported in PubChem BioAssay AID686964 (The Scripps Research Institute Molecular Screening Center, 2013).
Only a part is listed here, and it is no random draw. The source made the active and inactive calls. Cut-off read from the data, not from the text of the source: active = inhibition above about 13%; inactive = the rest.

Amino acid sequences for entries named in this document (tags omitted).
UniProt Q9UBB5, whole entry, looked up: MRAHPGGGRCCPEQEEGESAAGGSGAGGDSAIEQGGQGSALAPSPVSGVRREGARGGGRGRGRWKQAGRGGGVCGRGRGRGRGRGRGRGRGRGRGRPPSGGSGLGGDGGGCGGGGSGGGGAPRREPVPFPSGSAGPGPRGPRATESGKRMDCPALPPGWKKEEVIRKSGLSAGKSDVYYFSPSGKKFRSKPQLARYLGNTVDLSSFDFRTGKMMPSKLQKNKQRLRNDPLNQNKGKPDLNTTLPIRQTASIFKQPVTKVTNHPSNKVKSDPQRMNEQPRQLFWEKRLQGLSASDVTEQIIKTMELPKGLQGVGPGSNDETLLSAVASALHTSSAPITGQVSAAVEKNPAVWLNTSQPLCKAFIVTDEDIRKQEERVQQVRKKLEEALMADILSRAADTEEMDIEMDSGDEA

biological target: Methyl-CpG-binding domain protein 2 (Homo sapiens) (UniProt Q9UBB5); assay: MBD2-DBD methyl-oligonucleotide interaction blockers – biochemical, TR-FRET, DNA-binding domain, human, primary screen (AID 686964); settings: MBD2 binding to methylated oligonucleotide, at 4.4 µM, stronger effect = higher value

| Structure (SMILES) | inhibition |
| --- | --- |
| CN(C(=O)Cc1ccc(Cl)c(Cl)c1)[C@H]1CCCC[C@H]1N1CCCC1 | inactive: -1.77% |
| NC(=O)c1cc([N+](=O)[O-])cc([N+](=O)[O-])c1N | inactive: -5.92% |
| Clc1ccc(Cl)c(NC2=NCC(CBr)S2)c1 (stereo not given) | inactive: 2.4% |
| CN1CCCC(OC(=O)C(c2ccccc2)c2ccccc2)C1 (stereo not given) | inactive: -6.3% |
| Cc1ccc(OP(=O)(Nc2nccs2)Oc2ccc(C)cc2)cc1 | inactive: 4.91% |
| COc1ccccc1OP(=O)(Nc1ccc(C)cn1)Oc1ccccc1OC | inactive: 3.29% |
| O=C(NC(Sc1ccncn1)C(Cl)(Cl)Cl)c1ccccc1 (stereo not given) | inactive: -0.42% |
| Oc1ccccc1CNc1ccccn1 | inactive: 3.07% |
| CC(C)CC(=O)NC(Sc1ccc(Cl)cc1)C(Cl)(Cl)Cl (stereo not given) | inactive: 4.52% |
| Nc1cc(N)c2nonc2c1[N+](=O)[O-] | inactive: -12.1% |
| CN(C)P(=O)(N(C)C)n1c(Nc2ccccc2)nnc1-c1ccccc1 | inactive: -1.84% |
| O=P(Nc1nc2ccc(Cl)cc2s1)(c1ccccc1)c1ccccc1 | inactive: -1.35% |
| CCCC1OP(N)(=O)OCC1CC (stereo not given) | inactive: -3.24% |
| O=C(O)c1ccccc1[As](=O)(O)O | inactive: -2.81% |
| CC(=O)Nc1ccc([As](=O)(O)O)cc1 | inactive: 4.88% |
| CCn1c(=O)n(C2CCN(CC3CCCCCCC3)C[C@H]2CO)c2ccccc21 (stereo not given in full) | inactive: -0.69% |
| CN(C(=O)Cc1ccc(Cl)c(Cl)c1)[C@H]1CCCC[C@@H]1N1CCCC1 | inactive: 0.75% |
| Cc1ccc(NP(=O)(Oc2ccccc2F)Oc2ccccc2F)nc1 | inactive: 1.34% |
| CCOP(=O)(Nc1ccccc1)OCC | inactive: -6.04% |
| Cc1cc(SC(NC(=O)c2ccc(F)cc2)C(Cl)(Cl)Cl)ncn1 (stereo not given) | inactive: -5.57% |
| Nc1cccc2ccc([As](=O)(O)O)cc12 | inactive: -0.65% |
| CCN(N=Nc1nonc1N)c1nonc1N | inactive: -5.34% |

| Structure (SMILES) | inhibition |
| --- | --- |
| CN(C(=O)Cc1ccccc1)C1CC[C@@]2(CCCO2)C[C@@H]1N1CCCC1 (stereo not given in full) | inactive: -6.1% |
| COc1cc(C(=O)NCC2(N3CCOCC3)CCCCC2)ccc1OCC(C)C | inactive: -0.33% |
| O=[N+]([O-])c1ccc(-c2cc([N+](=O)[O-])c(O)c([N+](=O)[O-])c2)cc1 | inactive: -17.8% |
| C[As](=O)(O)c1cccc(C(=O)O)c1 | inactive: 1.18% |
| O=[As](O)(c1ccc(O)cc1)c1ccccc1O | inactive: -0.34% |
| Cc1ccc(OP(=O)(Nc2ccc([N+](=O)[O-])cn2)Oc2ccc(C)cc2)cc1 | inactive: -0.28% |
| [N-]=[N+]=NC1CCCCC1NC(=O)c1cc([N+](=O)[O-])cc([N+](=O)[O-])c1 (stereo not given) | inactive: 3.95% |
| Cc1ccc2nc3c(c(C)c2c1)CC(C(Cl)Cl)S3 (stereo not given) | inactive: -1.17% |
| ClCCSc1nnc(-c2cccnc2)o1 | inactive: 0.77% |
| CC(C)c1ccc(OP(=O)(Nc2ccccn2)Oc2ccccc2F)cc1 (stereo not given) | inactive: -0.86% |
| COC(=O)C1(C)COP(=O)(N2CCCCCC2)OC1 (stereo not given) | inactive: 0.79% |
| O=C(OC1CN2CCC1CC2)c1cccc2[nH]cnc12 (stereo not given) | inactive: 6.62% |
| CCN(CC)C(=S)SC(NC=O)C(Cl)(Cl)Cl (stereo not given) | inactive: 1.28% |
| CC(C)NC(=O)NP(=O)(Oc1ccccc1)Oc1ccccc1 | inactive: -4.09% |
| Cc1c2c(nc3ccccc13)SC(C(Cl)Cl)C2 (stereo not given) | inactive: 0.49% |
| Cc1cc(=O)[nH]c(N[N+](=O)[O-])n1 | inactive: -4.39% |
| O=C(OC1CN2CCC1CC2)C12CC3CC(CC(C3)C1)C2 (stereo not given) | inactive: 0.9% |
| O=P1(N(CCCl)CCCl)OCCCN1CCCl (stereo not given) | inactive: 1.21% |
| O=P1(N(CCCl)CCCl)Nc2ccccc2N1 | inactive: 1.39% |
| COc1cc(I)ccc1[As](=O)(O)O | inactive: -0.69% |
| COc1ccc2nc(NP(=O)(c3ccccc3)c3ccccc3)sc2c1 | inactive: -1.12% |
| O=[N+]([O-])c1cc(Oc2ccc([N+](=O)[O-])cc2C(F)(F)F)cc([N+](=O)[O-])c1 | inactive: 2.79% |

| Structure (SMILES) | inhibition |
| --- | --- |
| COc1ccc(N/C(=N/P(=O)(N2CCOCC2)N2CCOCC2)N2CCOCC2)cc1 | inactive: -1.63% |
| COC(=O)C1(C)COP(=O)(N2CCCC2)OC1 (stereo not given) | inactive: -6.44% |
| COP1(=S)c2c(C)nn(CCC#N)c2N=C(c2ccc(F)cc2)N1C (stereo not given) | inactive: -2.64% |
| O=C(O)C(=O)c1ccc(N(CCCl)CCCl)cc1 | inactive: -1.04% |
| O=C(Nc1ccncc1[N+](=O)[O-])c1ccc([N+](=O)[O-])cc1[N+](=O)[O-] | inactive: 2.05% |
| O=C(COc1ccccc1)OC1CN2CCC1CC2 (stereo not given) | inactive: 5.24% |
| O=C(OC1CN2CCC1CC2)c1cccc([N+](=O)[O-])c1 (stereo not given) | inactive: 0.74% |
| CCOC(=O)c1ccc(NC(=O)C(C)(CCl)SC)cc1 (stereo not given) | inactive: -1.97% |
| CCC(C)N(CC(C)C)C(=S)SC(NC(C)=O)C(Cl)(Cl)Cl (stereo not given) | inactive: 5.81% |
| O=C(O)C(O)c1ccc(N(CCCl)CCCl)cc1 (stereo not given) | inactive: -2.82% |
| CCOC(=O)Nc1ccc([As](=O)(O)O)c(O)c1 | inactive: 3.99% |
| CC1CCNP(=O)(N(CCCl)CCCl)O1 (stereo not given) | inactive: -0.94% |
| COP(=O)(OC)N1CC1c1ccccc1 (stereo not given) | inactive: -4.65% |
| Cc1cc(SC(NC(=O)c2ccccc2)C(Cl)(Cl)Cl)nc(C(C)C)n1 (stereo not given) | inactive: -5.25% |
| CCCCOc1ccc(C(=O)NCC2(N3CCCCC3)CCCCC2)cc1OC | inactive: -0.28% |
| CCOC(=O)Nc1cccc([As](=O)(O)O)c1 | inactive: 2.94% |
| Cc1cc(SC(NC=O)C(Cl)(Cl)Cl)ncn1 (stereo not given) | inactive: 1.09% |
| O=P(Nc1ccccn1)(c1cccc2ccccc12)c1cccc2ccccc12 | inactive: -0.98% |
| O=[N+]([O-])c1ccc(Nc2ccc(Oc3ccc([N+](=O)[O-])cc3[N+](=O)[O-])cc2)c([N+](=O)[O-])c1 | inactive: 1.69% |
| Cc1ccc(C(=O)OC2CN3CCC2CC3)cc1 (stereo not given) | inactive: 6.23% |
| CC1CCC(C(C)C)C(OP(=O)(Nc2ccccn2)c2ccccc2)C1 (stereo not given) | inactive: -2.1% |
